The results in this text go back to ChEMBL document CHEMBL1671719, “Inhibition of antibiotic-resistant Staphylococcus aureus by the broad-spectrum dihydrofolate reductase inhibitor RAB1” (Antimicrob Agents Chemother, 2010).

The test system of experiment [1] is Staphylococcus aureus. The following applies: isolate NRS71.
Experiment [2] deals with Staphylococcus aureus. The following applies: isolate NRS123.

On to GENTAMICIN, for which the minimum inhibitory concentration (MIC) in the experiment with Staphylococcus aureus [1] and with Staphylococcus aureus [2] was 0.5 µg/mL throughout.

As usually defined, the MIC is the lowest concentration found to suppress growth. Low values mean a more susceptible organism, high ones a less susceptible organism.
